We go through one molecule from US10807944B2, “HDAC inhibitor compounds and methods of treatment” (priority 2014, dated 2020).

Chains of the proteins cited; added tags and fusions are not shown. Lines headed by an entry give the natural chain unless they say otherwise; changes in a name come on top.
UniProt Q969S8: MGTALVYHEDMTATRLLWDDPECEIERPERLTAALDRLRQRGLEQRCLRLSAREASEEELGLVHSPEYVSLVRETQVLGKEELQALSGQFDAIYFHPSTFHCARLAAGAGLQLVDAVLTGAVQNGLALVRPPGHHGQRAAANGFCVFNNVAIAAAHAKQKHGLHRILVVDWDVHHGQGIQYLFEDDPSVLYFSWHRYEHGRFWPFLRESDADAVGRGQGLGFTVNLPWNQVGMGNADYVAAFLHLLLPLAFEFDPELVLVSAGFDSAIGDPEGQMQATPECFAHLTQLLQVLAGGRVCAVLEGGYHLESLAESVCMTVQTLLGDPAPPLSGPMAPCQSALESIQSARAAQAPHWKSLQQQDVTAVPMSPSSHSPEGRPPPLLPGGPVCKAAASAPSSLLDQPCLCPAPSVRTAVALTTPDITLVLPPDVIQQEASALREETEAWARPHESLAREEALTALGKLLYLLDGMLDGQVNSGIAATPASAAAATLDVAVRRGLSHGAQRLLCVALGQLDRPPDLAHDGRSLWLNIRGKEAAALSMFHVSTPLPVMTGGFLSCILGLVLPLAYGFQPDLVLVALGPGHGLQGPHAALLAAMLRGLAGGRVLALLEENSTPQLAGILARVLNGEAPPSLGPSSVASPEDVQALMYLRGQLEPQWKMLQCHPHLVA

Molecules are shown by their SMILES.

The assay deals with HDAC10 (Homo sapiens (Human), UniProt Q969S8). Description: HDAC10 in vitro inhibition, dose response. The format is biochemical. The note with it: Table 1; read-out: Inhibitory Potency (IC50) HDAC 10.

What is called IC50 is the concentration that gives 50% inhibition.

Consider `O=C(CCCCCCC(=O)Nc1ccccc1)NO`, for which the IC50 was 30 nM.
